Results: patent publication US20130084640A1, “ANIMAL CELL CULTURE MEDIA COMPRISING NON ANIMAL OR PLANT DERIVED NUTRIENTS” (LIFE TECHNOLOGIES CORPORATION, priority 1999, published 2013)

Tested on: VERO cells
Assay: VERO cell growth in basal medium with non-animal supplements (mean cell count over subcultures, RGE)
Type: cell-based
Conditions: Table 2
Description: No attachment factors or coating of the plastic surface are required for the culture of VERO cells. At 3 to 4 days the cells were removed using standard cell culture techniques. The surface of the culture was first washed with Dulbecco's Phosphate Buffered Saline (DPBS) and then 1.0 ml Trypsin-EDTA (Life Technologies, Inc., Rockville, Md.) was added. The digest was allowed to sit on the cell surface for 3 to 5 minutes or until the cells rounded up and began to detach from the surface of the flask. The cells were completely detached by vigorous agitation against the palm of the hand and then 1.5 ml of soybean trypsin inhibitor was added to quickly neutralize enzymatic activity. The cells were counted under the microscope using trypan blue straining solution and new cultures plated at 2.5×10^3 cells per 25 cm^2 flask. Incubation was at 37° C. in 5% CO^2 in air. The cultures were passaged for a total of 4 subcultures and the mean cells per subculture determined from the counts of the final 3 subcultures (P2+P3+P4[…]). Initial studies were designed to formulate a culture medium completely devoid of animal proteins that supports the culture of animal cells. […] RGE was calculated as described in Example 2. […] RGE was calculated as described in Example 2. […] RGE was calculated as described in Example 2.

## HSA: human serum albumin, positive control supplement at 500 mg/liter [reference compound]
500 mg/liter HSA, the reference control itself
  RGE (relative growth efficiency): 100
Basal medium + 500 mg/liter HSA (positive control), per 25 cm^2 flask, mean over 3 subcultures
  Mean Cell Count: 44.9 × 10^5
